Laboratory results from US11319331B2, “Probe for selective detection of hypochlorous acid (HOCl) under physiological condition, and related methods” (Council of Scientific & Industrial Research, priority 2017, dated 2022).

Key:
[1] = luminescence spectra at different pH
RAW 264.7 cells = assay: MTT assay, in vitro cytotoxicity / cell viability

E)-4-(2-(5,5-difluoro-1,7,9-trimethyl-10-phenyl-5H-5λ^4,6λ^4-dipyrrolo[1,2-c:2′,1′-f][1,3,2]diazaborinin-3-yl)vinyl)benzene-1,2-diol [SF-1]
pH range in which stable in aqueous solution [1]: 4-9 pH | toxicity towards RAW 264.7 macrophage cells (MTT) (RAW 264.7 cells): non-toxic
